The source of these data is patent US11186579B2 (Gilead Sciences, Inc., priority 2018, dated 2021).

The chains behind the UniProt entries cited, without tags or fusion partners.
UniProt P14902, whole entry: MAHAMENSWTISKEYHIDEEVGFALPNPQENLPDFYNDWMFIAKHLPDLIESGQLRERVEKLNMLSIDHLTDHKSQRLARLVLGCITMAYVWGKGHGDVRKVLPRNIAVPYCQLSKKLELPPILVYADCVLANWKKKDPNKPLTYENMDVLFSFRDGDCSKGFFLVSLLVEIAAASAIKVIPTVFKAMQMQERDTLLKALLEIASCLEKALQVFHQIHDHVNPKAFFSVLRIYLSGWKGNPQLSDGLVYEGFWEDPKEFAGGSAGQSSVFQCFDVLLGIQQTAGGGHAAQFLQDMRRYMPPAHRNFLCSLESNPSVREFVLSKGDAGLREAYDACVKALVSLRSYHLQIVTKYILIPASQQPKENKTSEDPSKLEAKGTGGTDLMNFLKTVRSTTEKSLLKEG

This assay addresses IDO1 (Homo sapiens, UniProt P14902). Put plainly: Cell-Based (HeLa) Assay for Measurement of IDO1 Inhibition. The settings on record: H1-HeLa cells, IDO1 induced with IFNγ, 48 hour incubation, kynurenine in supernatant (absorbance 480 nm); geometric mean of minimum four determinations.

For the compound `Cc1ncc(-c2cccc3c(-c4cccc(F)c4F)cnn23)cc1C(=O)Nc1ccc(F)cc1`, the concentration for a half-maximal effect (EC50) was found to be 441 nM.
